In ChEMBL document CHEMBL2417522, “N-aryl-6-methoxy-1,2,3,4-tetrahydroquinolines: a novel class of antitumor agents targeting the colchicine site on tubulin” (Eur J Med Chem, 2013) one finds t1/2 and solubility data, which are given here for 1 compound.

For data set [1], the system named is Liver microsomes. Briefly: Half life in human liver microsomes at 1 uM by LC-MS analysis. Type of data set: ADME, Microsome.
Data set [2] is described as follows: Aqueous solubility of the compound at pH 7.4 after 4 hrs by HPLC-UV method. Type of data set: physicochemical. The note with it: buffer, pH 7.4, 4 h. The method, boiled down:
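Solubility at pH 7.4: DMSO stock (1.0 mg/mL) diluted into phosphate buffer, final DMSO 1%; stirred 4 h at rt, centrifuged; saturated supernatant quantified by HPLC–UV against a standard curve (50–0.20 µg/mL in ACN). Triplicate samples.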

Values after ≈ are worked out from the molar mass of the structure shown.

In turn, `COc1ccc2c(c1)CCCN2c1nc(Cl)nc2ccccc12` registered a t1/2 in data set [1] of 10.59 min. In addition, in data set [2], the solubility (commonly how much of the substance goes into solution per volume) was 0.45 µg/mL (≈ 1.38 µM).
